Consider 29 molecules from PubChem BioAssay AID781 (Emory University Molecular Libraries Screening Center, 2007).

Chains of the proteins cited; added tags and fusions are not shown.
UniProt P63103, whole entry: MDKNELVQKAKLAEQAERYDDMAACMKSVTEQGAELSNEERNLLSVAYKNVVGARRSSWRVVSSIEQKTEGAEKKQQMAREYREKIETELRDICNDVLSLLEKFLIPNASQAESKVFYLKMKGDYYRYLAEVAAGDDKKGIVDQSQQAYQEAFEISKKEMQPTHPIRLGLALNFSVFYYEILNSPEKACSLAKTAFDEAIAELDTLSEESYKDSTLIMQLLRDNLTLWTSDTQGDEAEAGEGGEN

Molecules are shown by their SMILES. This is a selection; strong and weak results do not stand in their true shares. The source made the active and inactive calls.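 Rule for the calls: active = inhibition above about 70% (limit read from the data); inactive = the rest.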

The target in this experiment is 14-3-3 protein zeta/delta (Bos taurus) (UniProt P63103). Nature of the experiment: inhibitors of 14-3-3 zeta/Bad binding, primary screen, biochemical, TR-FRET, bovine 14-3-3 zeta (AID 781).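 Note: 0% = full 14-3-3 plus peptide FRET controls and 100% = background without 14-3-3.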 Conditions: TR-FRET 14-3-3zeta/Dy647-pBad peptide displacement, 1 h; at 21.7 µM; stronger effect = higher value.
For `COc1ccc(C(=O)NCC2(N3CCCCC3)CCCCC2)c(OC)c1OC`, the inhibition – broadly, the drop in the measured response relative to a control, in per cent – is inactive: 30.8%.

Consider `O=C(NCC1(N2CCOCC2)CCCCC1)c1cc2ccccc2o1`, for which the inhibition was inactive: 4.92%.

With `CCOC(=O)N1CCC(Nc2ccc(OC)cc2)CC1`, the inhibition was inactive: -14.2%.

For `O=C(OC1CN2CCC1CC2)C1c2ccccc2Oc2ccccc21` (centres undefined), the inhibition is inactive: 20.3%.

In the case of `N#CC1(Nc2ccccc2)CCN(Cc2ccccc2)CC1`, the inhibition is inactive: -1.4%.

Consider `CCOc1ccc(C)cc1CN(CCCl)CCCl`, for which the inhibition is inactive: 6.15%.

Turning to `COc1ccc(NC2CCN(CCc3ccccc3)CC2)c(OC)c1`, the inhibition is inactive: 29.3%.

As to `Cc1ccc(OCC(C)C)c(CN(CCCl)CCCl)c1`, the inhibition was inactive: 4.1%.

As to `O=C(NCC1(N2CCCCC2)CCCCC1)c1cccc([N+](=O)[O-])c1`, the inhibition was inactive: -8.24%.

With `N#CC1(Nc2ccccc2)CCN(CCc2ccccc2)CC1`, the inhibition is inactive: 9.78%.

As to `COc1ccc(NC2CCN(C(=O)OC(C)(C)C)CC2)cc1`, the inhibition is inactive: -8.12%.

For `CN1CCN(CCOC(=O)C(O)(c2ccccc2)c2ccccc2)CC1`, the inhibition was inactive: -18.5%.

On to `O=C(NCC1(N2CCOCC2)CCCCC1)c1cc(=O)[nH]c2ccccc12`, for which the inhibition is inactive: -6.46%.

Take `CN(C)c1cccc(C(=O)NCC2(N3CCCCC3)CCCCC2)c1`: the inhibition is inactive: -7.91%.

Take `COc1ccc(CN(CCCl)CCCl)cc1Cl`: the inhibition was inactive: 2.13%.

In the case of `CC(C)c1ccc(NC2CCN(C(=O)OC(C)(C)C)CC2)cc1`, the inhibition was inactive: -6.8%.

For `COc1ccc(C(=O)NCC2(N3CCOCC3)CCCCC2)cc1OC`, the inhibition was inactive: -8.42%.

Consider `N/C(=N\O)c1c(N)no[n+]1[O-]`, for which the inhibition is inactive: 12.5%.

On to `O=C(OC1CN2CCC1CC2)C1c2ccccc2C=Cc2ccccc21` (centres undefined), for which the inhibition is inactive: -8.53%.

Regarding `N#Cc1ccc(C(=O)NCC2(N3CCCCC3)CCCCC2)cc1`, the inhibition was inactive: -5.53%.

Take `c1ccc(CN2CCC(Nc3ccccc3)CC2)cc1`: the inhibition was inactive: -11.4%.

Regarding `Fc1ccccc1NC1CCN(Cc2ccccc2)CC1`, the inhibition is inactive: 62.4%.

On to `CCN1CCC(Nc2cccc(F)c2)CC1`, for which the inhibition is inactive: 47.7%.

For `CN(C)c1ccc(C(=O)NCC2(N3CCCCC3)CCCCC2)cc1`, the inhibition is inactive: -13.4%.

For `CCOc1ncccc1C(=O)NCC1(N2CCOCC2)CCCCC1`, the inhibition is inactive: 6.19%.

In the case of `CC(C)(C)OC(=O)N1CCC(Nc2ccccc2)CC1`, the inhibition is inactive: -13%.

In the case of `CCC(CO)(C(=O)OC1CN2CCC1CC2)c1ccccc1` (centres undefined), the inhibition is inactive: -6.91%.

As to `COc1cc(OC)cc(C(=O)NCC2(N3CCOCC3)CCCCC2)c1`, the inhibition is inactive: 4.26%.

For the molecule `CCCOc1ccc(C)cc1CN(CCCl)CCCl`, the inhibition was inactive: 13.2%.
